A short description of the data set: Extraction ratio in rat hepatocytes. Type of data set: ADME, cell-based, Hepatocyte. The note with it: read-out: ERH.

Turning to `O=C1N(c2ccc(F)cc2)CCc2nc(COc3ccccc3)cn21`, the hepatic extraction ratio was found to be 0.43.
